From paper PMC12671102 (Drug Design, Development and Therapy, 2025)

The chains behind the UniProt entries cited, without tags or fusion partners. Where a name states a change or a piece, a line headed by the entry shows the natural chain unless it says otherwise.
UniProt Q96S37: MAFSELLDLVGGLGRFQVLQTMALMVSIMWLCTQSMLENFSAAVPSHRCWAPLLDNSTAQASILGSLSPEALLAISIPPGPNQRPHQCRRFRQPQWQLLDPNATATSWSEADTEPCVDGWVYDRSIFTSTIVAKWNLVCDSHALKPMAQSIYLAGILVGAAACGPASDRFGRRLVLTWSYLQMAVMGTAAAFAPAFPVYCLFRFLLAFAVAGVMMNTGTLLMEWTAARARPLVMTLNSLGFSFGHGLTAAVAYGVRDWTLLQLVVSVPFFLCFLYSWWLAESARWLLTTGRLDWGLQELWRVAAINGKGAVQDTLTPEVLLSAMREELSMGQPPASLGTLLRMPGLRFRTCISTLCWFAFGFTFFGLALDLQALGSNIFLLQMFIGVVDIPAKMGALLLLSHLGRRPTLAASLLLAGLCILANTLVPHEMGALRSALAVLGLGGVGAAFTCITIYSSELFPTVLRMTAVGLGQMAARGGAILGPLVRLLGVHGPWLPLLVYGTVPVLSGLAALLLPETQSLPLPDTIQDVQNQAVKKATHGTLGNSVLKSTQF

Biological target: human URAT1 (Homo sapiens, UniProt Q96S37)
Type: cell-based

O=C(O)CSc1nnc(Br)n1-c1ccc(C2CC2)c2ccccc12 [lesinurad]
IC50: 24.4 µM
